Target: CYP1A2 (Homo sapiens, UniProt P05177)
Experiment: CYP1A2 activity (P450-Glo, Luciferin-1A2) in primary human hepatocyte spheroids and monolayers after 72 h drug exposure
Details: primary human hepatocytes, 72 h exposure, normalized to control

Protein sequences, listed by entry. Tags and fused reporters are not part of them.
UniProt P05177, whole entry: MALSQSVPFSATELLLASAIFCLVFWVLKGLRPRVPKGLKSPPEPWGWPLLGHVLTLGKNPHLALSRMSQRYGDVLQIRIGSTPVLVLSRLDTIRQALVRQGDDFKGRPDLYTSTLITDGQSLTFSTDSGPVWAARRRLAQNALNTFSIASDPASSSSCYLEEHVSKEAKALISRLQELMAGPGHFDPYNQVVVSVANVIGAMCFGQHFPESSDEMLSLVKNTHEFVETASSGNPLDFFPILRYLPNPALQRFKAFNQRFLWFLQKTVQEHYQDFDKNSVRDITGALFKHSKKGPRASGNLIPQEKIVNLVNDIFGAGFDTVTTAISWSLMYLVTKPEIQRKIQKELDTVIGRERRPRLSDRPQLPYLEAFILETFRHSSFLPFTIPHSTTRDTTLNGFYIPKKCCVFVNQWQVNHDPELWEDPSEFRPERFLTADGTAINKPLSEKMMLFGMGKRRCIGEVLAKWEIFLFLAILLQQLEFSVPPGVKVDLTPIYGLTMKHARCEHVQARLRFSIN

O=c1cc(-c2ccccc2)oc2c1ccc1ccccc12 [α-napthoflavone]
fold inhibition of CYP1A2 activity, spheroids compared to monolayers: greater fold inhibition in spheroids compared to monolayers

— publication PMC5454994, “Assembly of Hepatocyte Spheroids Using Magnetic 3D Cell Culture for CYP450 Inhibition/Induction” (International Journal of Molecular Sciences, 2017)
